Data reported in patent US20090036450A1, “PYRAZOLE COMPOUNDS AND USE THEREOF” (JAPAN TOBACCO, INC., priority 2006, published 2009).

The chains behind the UniProt entries cited, without tags or fusion partners.
UniProt P06737, whole entry: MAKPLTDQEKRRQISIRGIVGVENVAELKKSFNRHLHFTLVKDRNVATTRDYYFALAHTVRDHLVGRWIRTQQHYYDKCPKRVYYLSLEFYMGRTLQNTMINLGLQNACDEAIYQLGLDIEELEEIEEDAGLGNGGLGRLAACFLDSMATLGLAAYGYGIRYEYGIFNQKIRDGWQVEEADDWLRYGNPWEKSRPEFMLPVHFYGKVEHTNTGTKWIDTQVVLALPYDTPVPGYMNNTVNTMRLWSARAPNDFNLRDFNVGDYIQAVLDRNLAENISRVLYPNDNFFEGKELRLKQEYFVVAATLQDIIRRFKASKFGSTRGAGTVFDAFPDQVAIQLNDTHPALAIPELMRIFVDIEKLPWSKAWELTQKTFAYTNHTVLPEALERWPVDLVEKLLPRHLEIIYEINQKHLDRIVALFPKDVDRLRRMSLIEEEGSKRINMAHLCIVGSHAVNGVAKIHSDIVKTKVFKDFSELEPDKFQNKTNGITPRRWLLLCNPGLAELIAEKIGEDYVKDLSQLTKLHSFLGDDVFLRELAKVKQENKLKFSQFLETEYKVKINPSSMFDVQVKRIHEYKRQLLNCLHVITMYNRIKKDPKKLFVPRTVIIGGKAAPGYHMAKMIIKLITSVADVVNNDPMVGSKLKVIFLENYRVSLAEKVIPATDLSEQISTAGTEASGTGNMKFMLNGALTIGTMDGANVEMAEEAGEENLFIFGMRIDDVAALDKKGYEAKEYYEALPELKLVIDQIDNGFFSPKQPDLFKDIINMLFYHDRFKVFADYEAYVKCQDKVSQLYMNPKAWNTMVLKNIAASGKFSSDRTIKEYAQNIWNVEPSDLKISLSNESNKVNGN

Target: human liver glycogen phosphorylase (Homo sapiens, UniProt P06737)
Assay: Liver glycogen phosphorylase activity, forward reaction system (NADPH detection at 340 nm)
Settings: enzyme inhibitory activity against recombinant human liver glycogen phosphorylase (Sf9 cell lysate), room temperature, 75 minutes

For `Cc1nc(C(=O)O)c(CNC(=O)c2cc(NC(=O)c3cc(F)c(F)cc3C)[nH]n2)o1`, the IC50 was < 100 nM.
